In the library only some 1.3% were active in any assay of this set; here they are far more common.
AF4-AF9 inh = inhibitors of human MLL-AF4/AF9 interaction; AlphaScreen, biotin-AF4 peptide binding to FLAG-AF9; AID 651704; actives 0.47% (n = 350,000); inhibition, % at 10 µM;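 active = every replicate reaching a set inhibition limit, whatever the replicate mean, cut at about 25% in these data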;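 note: 0% = plate neutral control median and 100% = total signal loss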
E-sel inducer = induces E-selectin expression in human endothelial cells; P16581; HUVEC E-selectin immunofluorescence imaging; normalized: neutral wells 0, TNF-alpha wells 100; activation, % at 7.58 µM; actives 0.37% (n = 260,000); AID 686992;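 active = mean E-selectin-positive cell signal at least 10% of the positive control, reached in at least 60% of replicates, without over 20% cell loss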
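Assay system: HUVEC primary endothelial cells. Input: 3,000 HUVEC seeded per well. Doses: one compound dose added by pin transfer. Read-out basis: % PE-positive cells. Benchmarks: TNF-alpha high, DMSO low. Detection: immunofluorescence imaging. Buffer or medium: EGM-2, gelatin.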
Yeast UUG start = modulators of yeast start codon fidelity, primary screen, whole organism, S. cerevisiae, single point, plate reader; S. cerevisiae UUG-firefly luciferase reporter, luminescence/redox ratio; activity score, % at 18.7 µM; actives 0.13% (n = 350,000); AID 602363, 2012;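 active = replicate mean at a twofold rise or more, about +100% in these data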;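 also: firefly luciferase made from a UUG start codon reports start codon fidelity; reporter light over untreated wells divided by growth signal over untreated wells; some hits fall short of that in this replicate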
S100A4 MyoIIA = inhibitors of human S100A4 binding to myosin IIA peptide; P26447; S100A4/TAMRA-MyoIIA peptide fluorescence polarization; inhibition, % at 10.7 µM; actives 0.14% (n = 360,000); AID 652163;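 active = mean inhibition of at least 70% across replicates, with every replicate also reaching that level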
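Test system: S100A4 monomer protein; Medium: HEPES pH 7.2 with CaCl2, KCl, NaCl, DTT, Triton; Probe or stimulus: TAMRA-labelled myosin IIA heavy-chain peptide probe, 5 nM; Doses: one dose per compound; Times: polarization read 5 min after assay mix addition, stable 5–60 min; Benchmarks: neutral control DMSO, positive control TFP.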
ERAP1 inh = ERAP1 (human) enzyme inhibition | Q9NZ08 | AID 652197 | inhibition, % at 10.7 µM | actives 0.15% (n = 340,000) | recombinant ERAP1, Leu-AMC fluorescence, 60 min;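 active = mean replicate inhibition of at least 30%, or all replicates individually reaching that 30% level; inactive = mean below 30% and not every replicate reaching it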;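 note: 0% = neutral control wells and 100% = L-leucinethiol positive control wells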
ARNT TACC3 PPI = disruptors of human ARNT/TACC3 interaction; actives 0.66% (n = 390,000); inhibition, % at 9.99 µM; AlphaScreen His-ARNT PAS-B/GST-TACC3 binding, luminescence; TACC3 fragment carries E629A point mutation; Q9Y6A5; AID 623870;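 active = mean inhibition of replicates at least 50% and at least half of replicates each reaching 50%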;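 note: 0% = complete ARNT plus TACC3 wells and 100% = ARNT alone without TACC3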
* hit, by the source's call; . = not tested or not shown.

Short keys – A = AF4-AF9 inh; B = E-sel inducer; C = Yeast UUG start; D = S100A4 MyoIIA; E = ERAP1 inh; F = ARNT TACC3 PPI
1) CCC(Sc1nc2ccncc2[nH]1)C(=O)Nc1ccc(C)c(Cl)c1 (stereo not drawn)
  A: 1.9 | B: 0.2 | C: -15.2 | D: 78.6* | E: 1.7 | F: 3.8
2) Cn1cccc1-c1nc2ccc(NC(=O)c3cccs3)cc2[nH]1
  A: . | B: . | C: -12.6 | D: . | E: . | F: 36.4*
3) CC(=O)Nc1ccc2nc(-c3cccn3C)[nH]c2c1
  A: -4.5 | B: . | C: -7.6 | D: 3.6 | E: 4.7 | F: -2.8
4) C[C@@H]1CN([C@@H](C)CO)C(=O)c2cc(NC(=O)CCC(F)(F)F)ccc2O[C@@H](C)CCCCO[C@@H]1CN(C)C
  A: . | B: -0.1 | C: . | D: . | E: . | F: .
5) COc1ccccc1Nc1nc(NCCO)nc(N2CCCC2)n1
  A: -3.9 | B: 0.2 | C: -4.2 | D: -0.4 | E: 2.3 | F: active
6) O=C(C[C@@H]1C[C@@H]2c3cc(NC(=O)C4CCOCC4)ccc3O[C@@H]2[C@H](CO)O1)NCc1ccc(Oc2ccccc2)cc1
  A: 0.6 | B: 6.6 | C: . | D: -25.8 | E: -3.9 | F: -0.6
7) COc1cc(C(=O)NNc2nc3cc4c(cc3s2)OCO4)cc(OC)c1OC
  A: -0.5 | B: 107.8* | C: -19.6 | D: -2.1 | E: 11.7 | F: 7.4
8) COc1cc(OC)cc(C(=O)NNc2nc3cc4c(cc3s2)OCO4)c1
  A: -1.3 | B: -0.1 | C: -12.2 | D: -0.8 | E: 6.6 | F: 18.2
9) COC(=O)C[C@@H]1CC[C@H]2[C@H](COc3ccc(NS(=O)(=O)c4ccc(C)cc4)cc3C(=O)N2C)O1
  A: 0.9 | B: -0.1 | C: 7.4 | D: 101.4* | E: 1.0 | F: 9.4
10) COC(=O)C[C@@H]1CC[C@@H]2[C@@H](COc3ccc(NS(=O)(=O)c4ccc(C)cc4)cc3C(=O)N2C)O1
  A: 1.2 | B: 0.4 | C: -0.1 | D: 1.7 | E: -0.7 | F: 3.9
11) C[C@H](NC(=O)C[C@@H]1CC[C@@H]2[C@H](COc3ccc(NS(=O)(=O)c4ccc(Cl)cc4)cc3C(=O)N2C)O1)c1ccccc1
  A: -1.9 | B: -0.3 | C: . | D: 4.0 | E: -1.2 | F: -4.3
12) C[C@H](NC(=O)C[C@H]1CC[C@H]2[C@H](COc3ccc(NS(=O)(=O)c4ccc(Cl)cc4)cc3C(=O)N2C)O1)c1ccccc1
  A: -0.3 | B: 128.1* | C: . | D: 6.2 | E: 0.5 | F: -11.7
13) CN1C(=O)c2cc(NS(C)(=O)=O)ccc2OC[C@@H]2O[C@H](CC(=O)NCc3ccc(-c4ccccc4)cc3)CC[C@@H]21
  A: -10.8 | B: 64.7* | C: . | D: 0.1 | E: 3.0 | F: 4.2
14) COc1cccc(C#Cc2ccc([C@@H]3[C@H]4CN(C(=O)Cc5cccnc5)CC(=O)N4[C@H]3CO)cc2)c1
  A: -1.1 | B: 3.5 | C: . | D: 4.1 | E: -3.0 | F: .
15) CC(C)NC(=O)Nc1ccc2c(c1)CC(=O)N([C@H](C)CO)C[C@H](C)[C@@H](CN(C)Cc1ccccc1)O2
  A: 0.4 | B: 0.0 | C: -8.9 | D: -2.6 | E: 0.5 | F: -0.5
16) C[C@H](CO)N1C[C@H](C)[C@H](CN(C)Cc2ccccc2)Oc2ccc(NS(=O)(=O)c3ccccc3)cc2CC1=O
  A: 4.0 | B: -0.3 | C: 2.1 | D: 86.9* | E: -0.1 | F: 9.8
17) CC(C)NC(=O)Nc1ccc2c(c1)CC(=O)N([C@H](C)CO)C[C@@H](C)[C@H](CN(C)Cc1ccc(Oc3ccccc3)cc1)O2
  A: 5.0 | B: 44.5* | C: 1.0 | D: -4.9 | E: 2.9 | F: 7.2
18) C[C@@H]1CN([C@@H](C)CO)C(=O)Cc2cc(NS(C)(=O)=O)ccc2O[C@H]1CN(C)Cc1ccncc1
  A: -1.8 | B: 440.3* | C: -14.7 | D: 1.6 | E: 0.8 | F: -2.9
19) C[C@@H]1CN([C@H](C)CO)C(=O)Cc2cc(NC(=O)Nc3ccc(C(F)(F)F)cc3)ccc2O[C@H]1CN(C)Cc1ccc(Oc2ccccc2)cc1
  A: . | B: 445.6* | C: -6.4 | D: . | E: . | F: 0.1
20) C[C@@H]1CN([C@H](C)CO)C(=O)Cc2cc(NC(=O)c3ccncc3)ccc2O[C@@H]1CN(C)Cc1ccc(Oc2ccccc2)cc1
  A: 6.8 | B: -5.8 | C: 2.1 | D: 1.1 | E: -1.0 | F: .
21) COc1ccc(NC(=O)N(C)C[C@H]2Oc3ccc(NC(=O)c4ccncc4)cc3CC(=O)N([C@H](C)CO)C[C@H]2C)cc1
  A: -2.5 | B: 41.7* | C: -2.2 | D: 4.8 | E: 4.9 | F: -4.9
22) CC(C)NC(=O)Nc1ccc2c(c1)CC(=O)N([C@@H](C)CO)C[C@H](C)[C@H](CN(C)Cc1ccc(Oc3ccccc3)cc1)O2
  A: 6.7 | B: 16.2 | C: 2.1 | D: 5.0 | E: -0.5 | F: 33.1
23) COc1ccc(CN(C)C[C@H]2Oc3ccc(NC(=O)c4ccncc4)cc3CC(=O)N([C@H](C)CO)C[C@H]2C)cc1
  A: -1.5 | B: 0.2 | C: . | D: 0.3 | E: -1.5 | F: 0.4
24) C[C@@H]1CN([C@@H](C)CO)C(=O)Cc2cc(NC(=O)c3ccncc3)ccc2O[C@H]1CN(C)Cc1ccc(Oc2ccccc2)cc1
  A: 19.6 | B: 313.2* | C: 5.1 | D: -4.3 | E: 0.1 | F: 17.7
25) CC(C)NC(=O)Nc1ccc2c(c1)CC(=O)N([C@H](C)CO)C[C@H](C)[C@@H](CN(C)Cc1ccc(Oc3ccccc3)cc1)O2
  A: 10.6 | B: 37.4* | C: -3.8 | D: 18.3 | E: 0.2 | F: 6.3

(continued)
Values run as follows: AF4-AF9 inh, E-sel inducer, Yeast UUG start, S100A4 MyoIIA, ERAP1 inh, ARNT TACC3 PPI
[26] Cc1noc(C)c1S(=O)(=O)Nc1ccc2c(c1)CC(=O)N([C@@H](C)CO)C[C@@H](C)[C@H](CN(C)Cc1ccc(-c3ccccc3)cc1)O2
    0.6, -0.7, ., -0.2, 1.9, .
[27] Cc1noc(C)c1S(=O)(=O)Nc1ccc2c(c1)CC(=O)N([C@H](C)CO)C[C@H](C)[C@@H](CN(C)Cc1ccc(-c3ccccc3)cc1)O2
    2.1, 58.0*, ., -3.8, -1.4, .
[28] O=C(N[C@@H]1CC[C@H](CCn2cc(Cc3ccccc3)nn2)O[C@H]1CO)c1ccccn1
    -2.0, -0.3, -12.5, 2.7, 2.5, 2.7
[29] C[C@H]1CN([C@@H](C)CO)C(=O)c2cccc(NS(C)(=O)=O)c2O[C@H]1CN(C)C(=O)NC1CCCCC1
    -2.4, ., -10.3, -16.2, 0.6, 2.0
[30] COc1ccc(NC(=O)N(C)C[C@H]2Oc3ccc(NC(=O)CCCCCC(=O)Nc4ccccc4N)cc3C(=O)N([C@@H](C)CO)C[C@@H]2C)cc1
    -1.8, ., ., -6.0, -0.6, .
[31] C[C@@H]1CCCCO[C@@H](CN(C)C(=O)Nc2cccc3ccccc23)[C@@H](C)CN([C@H](C)CO)C(=O)c2cc(NC(=O)Nc3ccc4c(c3)OCO4)ccc2O1
    3.1, 0.1, -9.2, 4.3, -1.2, -6.1
[32] C[C@@H]1CN([C@@H](C)CO)C(=O)Cc2cc(NS(=O)(=O)c3ccccc3)ccc2O[C@H]1CN(C)Cc1ccc(Oc2ccccc2)cc1
    2.4, -0.1, 15.0, 15.7, 0.1, 15.9
[33] CC(C)NC(=O)Nc1ccc2c(c1)CC(=O)N([C@@H](C)CO)C[C@@H](C)[C@@H](CN(C)Cc1ccc(Oc3ccccc3)cc1)O2
    7.4, -4.4, 23.4, -12.6, 5.3, active
[34] C[C@H]1CN([C@@H](C)CO)C(=O)Cc2cc(NS(C)(=O)=O)ccc2O[C@@H]1CN(C)Cc1ccc(Oc2ccccc2)cc1
    1.0, 168.7*, 3.7, -1.9, -2.7, -4.3
[35] CO[C@@H]1CN(C)C(=O)c2cc(NS(=O)(=O)c3cccc(Cl)c3)ccc2OC[C@H](C)NC[C@H]1C
    -12.0, 0.1, -6.0, 42.2, 0.0, .

Record cards (already shown):
Profile of `Cc1noc(C)c1S(=O)(=O)Nc1ccc2c(c1)CC(=O)N([C@H](C)CO)C[C@H](C)[C@@H](CN(C)Cc1ccc(-c3ccccc3)cc1)O2` : AF4-AF9 inh = 2.1; E-sel inducer = 58.0*; Yeast UUG start = .; S100A4 MyoIIA = -3.8; ERAP1 inh = -1.4; ARNT TACC3 PPI = .
Profile of `C[C@@H]1CN([C@@H](C)CO)C(=O)Cc2cc(NS(=O)(=O)c3ccccc3)ccc2O[C@H]1CN(C)Cc1ccc(Oc2ccccc2)cc1` : AF4-AF9 inh = 2.4; E-sel inducer = -0.1; Yeast UUG start = 15.0; S100A4 MyoIIA = 15.7; ERAP1 inh = 0.1; ARNT TACC3 PPI = 15.9

Screening data as filed in PubChem BioAssay.
